Literature values, collected in US20150148304A1, “Novel Peptides and Analogs for Use in the Treatment of Macrophage Activation Syndrome” (Soligenix, Inc., priority 2013, published 2015).

Conditions: oral administration; cited from earlier work

In the case of `Oc1ccc2c3c1O[C@H]1[C@H](O)CC[C@@]4(O)[C@@H](C2)N(CC2CC2)CC[C@]314` [6-β-naltrexol], the “time of peak plasma levels after dosing” value is given as “one”.
